Patent EP4603105A1, “PHARMACEUTICAL COMPOSITION CONTAINING CYCLIC COMPOUND HAVING SELECTIVE KRAS INHIBITORY EFFECT AGAINST HRAS AND NRAS” (CHUGAI SEIYAKU KABUSHIKI KAISHA, priority 2022, dated 2024)

Protein sequences, listed by entry. Tags and fused reporters are not part of them.
UniProt P01112, whole entry: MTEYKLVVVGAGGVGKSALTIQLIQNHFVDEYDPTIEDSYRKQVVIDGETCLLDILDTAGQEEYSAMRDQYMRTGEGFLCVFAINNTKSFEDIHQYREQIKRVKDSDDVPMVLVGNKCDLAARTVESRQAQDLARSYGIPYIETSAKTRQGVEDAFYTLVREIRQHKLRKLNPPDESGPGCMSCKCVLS

Target: HRAS wild-type protein (Homo sapiens, UniProt P01112)
Assay: Binding to HRAS by surface plasmon resonance (SPR), KD and KD ratio to KRAS
[1] = ratio of KD with respect to HRAS wild-type protein to KD with respect to KRAS
[2] = ratio of KD for HRAS wild-type protein to KD for KRAS

Structure (SMILES)	HRAS /KRAS [1]	HRAS /KRAS [2]
CCCOC[C@H]1C(=O)N[C@@H]([C@@H](C)CC)C(=O)N(C)CC(=O)N(C)[C@H]2C/C=C\CCN(C2=O)[C@@H](Cc2ccc(C)cc2)C(=O)N(C)CC(=O)N[C@@H](CCc2cc(F)c(C(F)(F)F)c(F)c2)C(=O)N2C[C@H](OCC)C[C@H]2C(=O)NC2(CC(C)(C)C2)C(=O)N(C)[C@@H](C2CCCC2)C(=O)N(C)[C@H](C(=O)N(C)C)CC(=O)N1C	B (a compound having 3 or more and less than 10 is denoted as B)	–
CCC(C)C1NC(=O)C(CC)N(C)C(=O)CC(C(=O)N(C)C)N(C)C(=O)C(C2CCCC2)N(C)C(=O)C2(CCC2)NC(=O)C(COCCC(C)C)N(C)C(=O)C(CCc2cc(F)c(C(F)(F)F)c(F)c2)NC(=O)CN(C)C(=O)C(Cc2ccc(C(F)(F)F)cc2)N2CCC=CCC(C2=O)N(C)C(=O)CN(C)C1=O (stereo not shown)	A (a compound having 10 or more and less than 20 is denoted as A)	–
CCC[C@H]1C(=O)N[C@@H]([C@@H](C)CC)C(=O)N(C)CC(=O)N(C)[C@H]2C/C=C\CCN(C2=O)[C@@H](Cc2ccc(C(F)(F)F)cc2)C(=O)N(C)CC(=O)N[C@@H](CCc2cc(F)c(C(F)(F)F)c(F)c2)C(=O)N2C[C@H](OCC)C[C@H]2C(=O)NC2(CCC2)C(=O)N(C)[C@@H](C2CCCC2)C(=O)N(C)[C@H](C(=O)N2CCOCC2)CC(=O)N1C	A (a compound having 10 or more and less than 20 is denoted as A)	–
CC[C@H](C)[C@@H]1NC(=O)[C@H](CC)N(C)C(=O)C[C@@H](C(=O)N2CCOCC2)N(C)C(=O)[C@H](C2CCCC2)N(C)C(=O)C2(CCC2)NC(=O)[C@@H]2CCCN2C(=O)[C@H](CCc2ccc(C(F)(F)F)c(Cl)c2)NC(=O)CN(C)C(=O)[C@H](Cc2ccc(C(F)(F)F)cc2)N2C[C@H](C)CC[C@@H](C2=O)N(C)C(=O)CN(C)C1=O	B (a compound having 3 or more and less than 10 is denoted as B)	–
CC[C@H](C)[C@@H]1NC(=O)[C@H](CC)N(C)C(=O)C[C@@H](C(=O)N(C)C)N(C)C(=O)[C@H](C2CCCC2)N(C)C(=O)C2(CCC2)NC(=O)[C@@H]2CSCCN2C(=O)[C@H](CCc2cc(F)c(C(F)(F)F)c(F)c2)NC(=O)CN(C)C(=O)[C@H](Cc2ccc(C(F)(F)F)cc2)N2CC/C=C\C[C@@H](C2=O)N(C)C(=O)CN(C)C1=O	A (a compound having 10 or more and less than 20 is denoted as A)	–
CCOC1CC2C(=O)NC3(CCC3)C(=O)N(C)C(C3CCCC3)C(=O)N(C)C(C(=O)N3CCOCC3)CC(=O)N(C)C(Cc3cccc(C#N)c3)C(=O)NC(C(C)CC)C(=O)N(C)CC(=O)N(C)C3CCCCCN(C3=O)C(Cc3ccc(F)cc3)C(=O)N(C)CC(=O)NC(CCc3cc(F)c(C(F)(F)F)c(F)c3)C(=O)N2C1 (stereo not shown)	B (a compound having 3 or more and less than 10 is denoted as B)	–
CCCOC[C@H]1C(=O)N[C@@H]([C@@H](C)CC)C(=O)N2CCC[C@H]2C(=O)N(C)[C@H]2C/C=C\CCN(C2=O)[C@@H](Cc2ccc(C)cc2)C(=O)N(C)CC(=O)N[C@@H](CCc2ccc(C(F)(F)F)c(OC)c2)C(=O)N2C[C@@H](C)C[C@H]2C(=O)NC2(CC(C)(C)C2)C(=O)N(C)[C@@H](C2CCCC2)C(=O)N(C)[C@H](C(=O)N(C)CC)CC(=O)N1C	–	B (a compound having 3 or more and less than 10 is denoted as B)
CCC[C@H]1C(=O)N[C@@H]([C@@H](C)CC)C(=O)N2C[C@@H](OC)C[C@H]2C(=O)N(C)[C@H]2C/C=C\CCN(C2=O)[C@@H](Cc2ccc(C)cc2)C(=O)N(C)CC(=O)N[C@@H](CCc2ccc(C(F)(F)F)c(OC)c2)C(=O)N2C[C@@H](C)C[C@H]2C(=O)NC2(CC(C)(C)C2)C(=O)N(C)[C@@H](C2CCCC2)C(=O)N(C)[C@H](C(=O)N(C)C)CC(=O)N1C	–	B (a compound having 3 or more and less than 10 is denoted as B)
CCO[C@@H]1C[C@H]2C(=O)NC3(CCC3)C(=O)N(C)[C@@H](C3CCCC3)C(=O)N(C)[C@H](C(=O)N(C)C)CC(=O)N(C)[C@@H](CC)C(=O)N[C@@H](C3CCC3)C(=O)N(C)CC(=O)N(C)[C@H]3C/C=C\CCN(C3=O)[C@@H](Cc3ccc(C(F)(F)F)cc3)C(=O)N(C)CC(=O)N[C@@H](CCc3cc(F)c(C(F)(F)F)c(F)c3)C(=O)N2C1	B (a compound having 3 or more and less than 10 is denoted as B)	–
CC[C@H](C)[C@@H]1NC(=O)[C@H](CC2CC2)N(C)C(=O)C[C@@H](C(=O)N2CCOCC2)N(C)C(=O)[C@H](C2CCCC2)N(C)C(=O)C2(CCC2)NC(=O)[C@@H]2CCCN2C(=O)[C@H](CCc2ccc(C(F)(F)F)c(Cl)c2)NC(=O)CN(C)C(=O)[C@H](Cc2ccc(C(F)(F)F)cc2)N2C[C@H](C)CC[C@@H](C2=O)N(C)C(=O)CN(C)C1=O	B (a compound having 3 or more and less than 10 is denoted as B)	–
CCO[C@@H]1C[C@H]2C(=O)NC3(CCC3)C(=O)N(C)[C@@H](C(CC)CC)C(=O)N(C)[C@H](C(=O)N(C)C)CC(=O)N(C)[C@@H](CC3CC3)C(=O)N[C@@H]([C@@H](C)CC)C(=O)N(C)CC(=O)N(C)[C@H]3C/C=C\CCN(C3=O)[C@@H](Cc3ccc(C(F)(F)F)cc3)C(=O)N(C)CC(=O)N[C@@H](CCc3cc(F)c(Cl)c(F)c3)C(=O)N2C1	A (a compound having 10 or more and less than 20 is denoted as A)	–
CCO[C@@H]1C[C@H]2C(=O)NC3(CCC3)C(=O)N(C)[C@@H](C3CCCC3)C(=O)N(C)[C@H](C(=O)N(C)C)CC(=O)N(C)[C@@H](CC)C(=O)N[C@@H]([C@@H](C)CC)C(=O)N(C)CC(=O)N(C)[C@H]3C/C=C\CCN(C3=O)[C@@H](Cc3ccc(C(F)(F)F)cc3)C(=O)N(C)CC(=O)N[C@@H](CCc3ccc(C(F)(F)F)c(OC)c3)C(=O)N2C1	A (a compound having 10 or more and less than 20 is denoted as A)	–
CCC[C@H]1C(=O)N[C@@H]([C@@H](C)CC)C(=O)N(C)CC(=O)N(C)[C@H]2C/C=C\CCN(C2=O)[C@@H](Cc2ccc(C(F)(F)F)cc2)C(=O)N(C)CC(=O)N[C@@H](CCc2ccc3sccc3c2)C(=O)N2C[C@H](OCC)C[C@H]2C(=O)NC2(CCC2)C(=O)N(C)[C@@H](C(CC)CC)C(=O)N(C)[C@H](C(=O)N(C)C)CC(=O)N1C	A (a compound having 10 or more and less than 20 is denoted as A)	–
CC[C@H](C)[C@@H]1NC(=O)[C@H](CC)N(C)C(=O)C[C@@H](C(=O)N2CCOCC2)N(C)C(=O)[C@H](C2CCCC2)N(C)C(=O)C2(CCC2)NC(=O)[C@@H]2CCCN2C(=O)[C@H](CCc2cc(F)c(C(F)(F)F)c(F)c2)NC(=O)CN(C)C(=O)[C@H](Cc2ccc(C(F)(F)F)cc2)N2C[C@H](C)[C@H](C)C[C@@H](C2=O)N(C)C(=O)[C@@H]2CCN2C1=O	B (a compound having 3 or more and less than 10 is denoted as B)	–
CCO[C@@H]1C[C@H]2C(=O)NC3(CCC3)C(=O)N(C)[C@@H](C3CCCC3)C(=O)N(C)[C@H](C(=O)N3CCOCC3)CC(=O)N(C)[C@@H](Cc3cccs3)C(=O)N[C@@H]([C@@H](C)CC)C(=O)N(C)CC(=O)N(C)[C@H]3CCCCCN(C3=O)[C@@H](Cc3ccc(C(F)(F)F)cc3)C(=O)N(C)CC(=O)N[C@@H](CCc3cc(F)c(C(F)(F)F)c(F)c3)C(=O)N2C1	B (a compound having 3 or more and less than 10 is denoted as B)	–
CCO[C@@H]1C[C@H]2C(=O)NC3(CCC3)C(=O)N(C)[C@@H](C3CCCC3)C(=O)N(C)[C@H](C(=O)N3CCOCC3)CC(=O)N(C)[C@@H](COC)C(=O)N[C@@H]([C@@H](C)CC)C(=O)N(C)CC(=O)N(C)[C@H]3CCCCCN(C3=O)[C@@H](Cc3ccc(F)cc3)C(=O)N(C)CC(=O)N[C@@H](CCc3cc(F)c(C(F)(F)F)c(F)c3)C(=O)N2C1	B (a compound having 3 or more and less than 10 is denoted as B)	–
CC[C@H](C)[C@@H]1NC(=O)[C@H](CC)N(C)C(=O)C[C@@H](C(=O)N2CCOCC2)N(C)C(=O)[C@H](C2CCCC2)N(C)C(=O)C2(CCCC2)NC(=O)[C@@H]2CCCN2C(=O)[C@H](CCc2ccc(C(F)(F)F)c(Cl)c2)NC(=O)CN(C)C(=O)[C@H](Cc2ccc(C(F)(F)F)cc2)N2C[C@H](C)CC[C@@H](C2=O)N(C)C(=O)CN(C)C1=O	B (a compound having 3 or more and less than 10 is denoted as B)	–
CCC(C)C1NC(=O)C(CC)N(C)C(=O)CC(C(=O)N(C)C)N(C)C(=O)C(C2CCCC2)N(C)C(=O)C2(CCC2)NC(=O)C(CC2CCCCC2)N(C)C(=O)C(CCc2cc(F)c(C(F)(F)F)c(F)c2)NC(=O)CN(C)C(=O)C(Cc2ccc(C(F)(F)F)cc2)N2CCC=CCC(C2=O)N(C)C(=O)CN(C)C1=O (stereo not shown)	A (a compound having 10 or more and less than 20 is denoted as A)	–
CCO[C@@H]1C[C@H]2C(=O)NC3(CCC3)C(=O)N(C)[C@@H](C(CC)CC)C(=O)N(C)[C@H](C(=O)N(C)C)CC(=O)N(C)[C@@H](CC(C)C)C(=O)N[C@@H]([C@@H](C)CC)C(=O)N(C)CC(=O)N(C)[C@H]3C/C=C\CCN(C3=O)[C@@H](CC3CCC(F)(F)CC3)C(=O)N(C)CC(=O)N[C@@H](CCc3cc(F)c(C(F)(F)F)c(F)c3)C(=O)N2C1	A (a compound having 10 or more and less than 20 is denoted as A)	–
CCO[C@@H]1C[C@H]2C(=O)NC3(CCC3)C(=O)N(C)[C@@H](C3CCCC3)C(=O)N(C)[C@H](C(=O)N(C)C)CC(=O)N(C)[C@@H](CC(C)C)C(=O)N[C@@H]([C@@H](C)CC)C(=O)N(C)CC(=O)N(C)[C@H]3C/C=C\CCN(C3=O)[C@@H](Cc3ccc(C(F)(F)F)cc3)C(=O)N(C)CC(=O)N[C@@H](CCc3ccc4sccc4c3)C(=O)N2C1	A (a compound having 10 or more and less than 20 is denoted as A)	–
CCO[C@@H]1C[C@H]2C(=O)NC3(CCC3)C(=O)N(C)[C@@H](C3CCCC3)C(=O)N(C)[C@H](C(=O)N(C)C)CC(=O)N(C)[C@@H](CC3CCC3)C(=O)N[C@@H]([C@@H](C)CC)C(=O)N(C)CC(=O)N(C)[C@H]3C/C=C\CCN(C3=O)[C@@H](CC3CCC(F)(F)CC3)C(=O)N(C)CC(=O)N[C@@H](CCc3cc(F)c(C(F)(F)F)c(F)c3)C(=O)N2C1	A (a compound having 10 or more and less than 20 is denoted as A)	–
CCOC[C@H]1C(=O)N[C@@H]([C@@H](C)CC)C(=O)N(C)CC(=O)N(C)[C@H]2C/C=C\CCN(C2=O)[C@@H](Cc2ccc(C)cc2)C(=O)N(C)CC(=O)N[C@@H](CCc2cc(F)c(C(F)(F)F)c(F)c2)C(=O)N2C[C@@H](C)C[C@H]2C(=O)NC2(CC(C)(C)C2)C(=O)N(C)[C@@H](C2CCCC2)C(=O)N(C)[C@H](C(=O)N(C)CC)CC(=O)N1C	–	A (a compound having 10 or more and less than 20 is denoted as A)
